By UniProt entry, the sequences of proteins in these tests, tags left out. Where a name states a change or a piece, a line headed by the entry shows the natural chain unless it says otherwise.
UniProt Q12809: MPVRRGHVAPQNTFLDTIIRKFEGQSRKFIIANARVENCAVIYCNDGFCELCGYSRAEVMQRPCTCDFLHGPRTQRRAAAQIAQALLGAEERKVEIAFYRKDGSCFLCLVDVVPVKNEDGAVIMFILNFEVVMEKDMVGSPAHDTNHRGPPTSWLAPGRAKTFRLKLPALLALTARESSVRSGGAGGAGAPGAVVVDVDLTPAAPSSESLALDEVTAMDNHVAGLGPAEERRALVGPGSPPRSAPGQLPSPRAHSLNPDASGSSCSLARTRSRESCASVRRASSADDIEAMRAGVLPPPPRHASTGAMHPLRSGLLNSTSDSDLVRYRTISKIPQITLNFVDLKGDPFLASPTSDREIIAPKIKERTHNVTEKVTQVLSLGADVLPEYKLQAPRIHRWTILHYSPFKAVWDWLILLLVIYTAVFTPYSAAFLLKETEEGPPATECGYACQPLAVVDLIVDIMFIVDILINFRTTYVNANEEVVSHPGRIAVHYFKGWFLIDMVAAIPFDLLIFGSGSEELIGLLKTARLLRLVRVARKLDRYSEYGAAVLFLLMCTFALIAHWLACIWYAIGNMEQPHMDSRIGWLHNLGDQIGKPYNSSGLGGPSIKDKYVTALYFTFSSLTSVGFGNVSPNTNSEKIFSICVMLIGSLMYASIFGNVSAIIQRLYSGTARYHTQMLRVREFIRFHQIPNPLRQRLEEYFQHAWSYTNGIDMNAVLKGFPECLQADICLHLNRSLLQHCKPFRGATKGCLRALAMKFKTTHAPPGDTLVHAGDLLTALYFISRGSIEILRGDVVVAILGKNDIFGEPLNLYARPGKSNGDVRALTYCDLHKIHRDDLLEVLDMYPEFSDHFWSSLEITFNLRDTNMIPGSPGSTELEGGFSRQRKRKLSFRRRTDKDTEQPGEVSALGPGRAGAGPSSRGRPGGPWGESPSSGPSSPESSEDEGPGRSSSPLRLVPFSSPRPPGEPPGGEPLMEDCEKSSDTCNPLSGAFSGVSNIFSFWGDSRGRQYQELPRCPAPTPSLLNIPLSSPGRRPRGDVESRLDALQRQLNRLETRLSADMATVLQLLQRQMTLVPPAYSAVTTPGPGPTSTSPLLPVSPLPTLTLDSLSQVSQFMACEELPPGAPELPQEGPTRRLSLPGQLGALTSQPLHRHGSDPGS

According to US12496309B2, “Method for treatment of pancreatitis” (NovMetaPharma Co., Ltd., priority 2020, dated 2025):

Target: hERG (Homo sapiens, UniProt Q12809)
Experiment: hERG binding

Compound: CN(C)CCOc1ccc(/C(=C(/CCCO)c2ccccc2)c2ccc(O)cc2)cc1 [GSK5182, reference compound]
- IC50: > 30 µM
